{"source": "patent US20040105895A1", "about": "“Monovalent-selective cation exchangers as oral sorbent therapy” (priority 2001, published 2004)", "assay": "Tolerability of sorbent-supplemented feed in rats (food intake, weight, stool, post-mortem)", "conditions": "rat, in vivo", "data": [{"substance": "zirconium-silicate [zirconium-silicate sorbent]", "values": [{"measurement": "Hemoccult / hemoglobin test of red spots in stool", "result": "negative"}, {"measurement": "gross post-mortem analysis", "result": "entirely normal"}, {"measurement": "histologic appearance of the mucosa of small bowel and large bowel", "result": "normal"}]}]}
